Where two headings read alike, the source gives them in different places.
Target: human α7 nicotinic acetylcholine receptor (HEK cell line stably expressing human RIC-3 and human α7) (Homo sapiens, UniProt P36544)
Assay: Automated patch-clamp electrophysiology functional assay (Assay A), IonFlux HT, whole-cell population patch
[1] = read-out: α7 nAChR EC50, automated patch-clamp electrophysiology functional assay (Assay A)
[2] = read-out: α7 nAChR Potency, HEK cells expressing human α7/RIC-3, test compound with or without 40 μM acetylcholine, holding potential −60 mV, room temperature

By UniProt entry, the sequences of proteins in these tests, tags left out. Residues count along the entry.
UniProt P36544, 23-502 limits assumed: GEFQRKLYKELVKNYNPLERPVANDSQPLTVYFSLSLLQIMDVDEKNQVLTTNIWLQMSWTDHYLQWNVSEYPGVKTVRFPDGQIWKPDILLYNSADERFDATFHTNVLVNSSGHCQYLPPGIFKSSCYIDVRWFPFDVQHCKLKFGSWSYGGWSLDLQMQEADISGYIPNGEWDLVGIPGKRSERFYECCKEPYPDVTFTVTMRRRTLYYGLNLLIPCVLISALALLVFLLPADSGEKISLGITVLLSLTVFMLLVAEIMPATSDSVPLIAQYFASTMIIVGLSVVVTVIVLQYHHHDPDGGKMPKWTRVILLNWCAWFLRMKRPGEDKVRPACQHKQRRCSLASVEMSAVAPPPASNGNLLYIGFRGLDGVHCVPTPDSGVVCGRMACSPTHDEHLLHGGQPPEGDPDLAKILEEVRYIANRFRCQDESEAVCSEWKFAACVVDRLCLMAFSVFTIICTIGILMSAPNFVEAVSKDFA

Row | Compound | EC50 [1] [nM] | EC50 [2] [nM]
1 | NS(=O)(=O)N1CCC2(CC1)C[C@H]2c1nc(-c2cccc(OC(F)F)c2)no1 | 760 | 500 to 5000
2 | NS(=O)(=O)N1CCC2(C(F)C1)C(c1nc(-c3conc3C3CC3)no1)C2(F)F (stereo not shown) | 160 | 100 to 500
3 | COc1ccc(Cl)cc1-c1nc([C@@H]2CC23CCN(S(N)(=O)=O)CC3)no1 | 59 | < 100
4 | NS(=O)(=O)N1CCC2(CC1)C[C@H]2c1noc(-c2ccc(C(F)(F)F)cc2)n1 | 960 | 500 to 5000

Further lines, results first:

Row | EC50 [1] [nM] | EC50 [2] [nM] | Compound
5 | 190 | 100 to 500 | NS(=O)(=O)N1CCC2(CC1)[C@H](c1nc(-c3ccc(F)cc3C(F)(F)F)no1)C2(F)F
6 | 1200 | 500 to 5000 | CC(C)(O)c1ccc(-c2noc([C@@H]3C(F)(F)C34CCN(S(N)(=O)=O)CC4)n2)cc1
7 | 170 | 100 to 500 | NS(=O)(=O)N1CCC2(CC1)[C@H](c1nc(-c3ccc(F)cc3F)no1)C2(F)F
8 | 140 | 100 to 500 | NS(=O)(=O)N1CCC2(CC1)[C@H](c1nc(-c3cccc(F)c3)no1)C2(F)F

Source: patent US11332463B2, “Spiropiperidine allosteric modulators of nicotinic acetylcholine receptors” (Merck Sharp & Dohme Corp., priority 2018, dated 2022)
